Patent publication US10184933B2, “Compositions, systems and methods for gene expression noise drug screening and uses thereof” (priority 2013, dated 2019)

Experiments:
[1] = tested on: latent HIV-1 in JLat 8.6 cells; format: cell-based
[2] = tested on: latent HIV-1 in primary T-cells; format: cell-based
Procedure: FIG. 18A schematically depicts a primary T-cell model of HIV-1 latency 48 h after reactivation with PMA or a subset of noise enhancers (% reactivation percentage is calculated relative to maximal reactivation potential). […] The horizontal line represents the mean calculated Bliss Independence Score (C. I. Bliss, Ann. Appl. Biol. 26:585-615 (1939)), a measure for strict additivity for all of the compounds. FIG. 18B schematically depicts stochastic simulations of noise suppression, which reduces noise without altering the mean expression level but limits reactivation induced by an activator. […] Details are described, e.g., in Example 10.

Compound	synergy in reactivation of HIV-1 latency [1]	synergy with PMA [2]
CS(=O)(=O)OCCCCOS(C)(=O)=O [V69, busulfan]	synergized	–
S=c1nc[nH]c2nc[nH]c12 [V9, mercaptopurine]	–	does not synergize significantly
